# Tested on: HER2 high expression human breast cancer cell BT-474
# Test: Anti-tumor effect, combined use, BT-474 cancer-bearing nude mice
# Format: in vivo
# Settings: BT-474 nude mice; compound B4 20 mg/kg/day orally 14 days; trastuzumab 10 mg/kg i.p. twice a week for 2 weeks; or both
substance,measurement,value
trastuzumab: trastuzumab (Herceptin (trade mark); anti-HER2 antibody) [reference compound],growth rate (T/C (%)),−17%

# Source: US20040116330A1, “Preventive/therapeutic method for cancer” (priority 2001, published 2004)
